Laboratory results: patent publication US6593362B2, “Non-peptidic cyclophilin binding compounds and their use” (Guilford Pharmaceuticals Inc., priority 2001, dated 2003)

By UniProt entry, the sequences of proteins in these tests, tags left out.
UniProt P62937, whole entry: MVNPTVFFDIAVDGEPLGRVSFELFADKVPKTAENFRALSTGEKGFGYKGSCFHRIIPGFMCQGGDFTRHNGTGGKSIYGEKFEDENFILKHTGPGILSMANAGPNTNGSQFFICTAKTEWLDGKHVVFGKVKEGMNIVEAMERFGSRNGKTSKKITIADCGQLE

Biological target: CyP A (Homo sapiens, UniProt P62937)
Test: biochemical
Details: for inhibition at 10 µM: read-out: % Inhibition at 10 μM
Method: A number of substrates for rotamase are known in the art or can be derived from those known. Typically, the substrate contacts a sample containing a protein with rotamase activity and the conversion of the substrate is detected after a period of time. The method for detecting conversion of the substrate will vary with the particular substrate chosen.
The following were added to a plastic cuvette: […] of ice cold assay buffer (25 mM HEPES, pH 7.8, 100 mM NaCl), 10 μL of CyP A (2.5 μM in 10 mM Tris-Cl pH 7.5, 100 mM NaCl, 1 mM dithiothreitol), 25 μL of chymotrypsin (50 mg/ml in 1 mM HCl), and 10 μL of test compound, at various concentrations, in dimethyl sulfoxide. The reaction was initiated by the addition of 5 μL of substrate (succinyl-Ala-Phe-Pro-Phe-para-nitroanilide, 5 mg/mL in 470 mM LiCl in trifluoroethanol). The absorbance at 390 nm versus time was monitored for 90 seconds using a spectrophotometer.
While CyP A is used in these examples, other CyP proteins can be substituted.

SMILES | inhibition at 10 µM [%] | IC50 [nM]
O=C(Nc1ccc(I)cc1)Nc1cc(NC(=O)Nc2ccc(I)cc2)c(Br)cc1Br [Compound 3] | 100 | 
CSc1ccc(Cl)cc1C(=O)Nc1cccc(NC(=O)c2cc(Cl)ccc2SC)c1 [Compound 6] |  | 1020
O=C(Nc1ccccc1)Nc1cc(NC(=O)Nc2ccccc2)cc(C(F)(F)F)c1 [Compound 7] |  | 1900
O=C(Nc1cccc2ccccc12)NC1CCCC(NC(=O)Nc2cccc3ccccc23)C1 (centres unmarked) [Compound 10] | 99 | 
O=C(Nc1cc(Cl)cc(Cl)c1)c1cccc(C(=O)Nc2cc(Cl)cc(Cl)c2)c1 [Compound 14] |  | 970
O=C(NCc1cccc2ccccc12)c1cccc(NC(=O)c2cc(Cl)cc(Cl)c2)c1 [Compound 16, {3-[(3,5-dichlorophenyl)carbonylamino]phenyl}-N-(naphthylmethyl) formamide] |  | 1000
O=C(Nc1cccc(NC(=O)N(c2ccccc2)c2ccccc2)c1)N(c1ccccc1)c1ccccc1 [Compound 22] |  | 8200
O=C(NCC1CCCC(CNC(=O)Nc2cc(Cl)cc(Cl)c2)C1)Nc1cc(Cl)cc(Cl)c1 (centres unmarked) [Compound 25] |  | 3250
O=C(NCC1CCCC(CNC(=O)Nc2cc(Br)cc(Br)c2)C1)Nc1cc(Br)cc(Br)c1 (centres unmarked) [Compound 26] |  | 5640
O=C(NCc1cccc(CNC(=O)Nc2ccc(Br)cc2Br)c1)Nc1ccc(Br)cc1Br [Compound 31] |  | 3900
O=C(Nc1cccc(NC(=O)Nc2cnccn2)c1)Nc1cnccn1 [Compound 33] | 2 | 
